Our source for the fold change (FC) and Activity values is ChEMBL document CHEMBL2177083, “Enhanced in vitro biological activity of synthetic 2-(2-pyridyl) ethyl isothiocyanate compared to natural 4-(methylsulfinyl) butyl isothiocyanate” (J Med Chem, 2012).

Common to all, as to format: functional, cell-based
Test [1] is described as follows: Increase in TGF-beta signaling pathway related gene expression in human PNT1A cells at 10 uM incubated for 8 hrs by Affymetrix human exon array relative to untreated control.
In another test the test system is PC-3. The experiment in a line: Cytotoxicity against human PC3 cells incubated for 24 hrs by WST1 dye reduction assay. On the technique in general: Tetrazolium dyes change colour on reduction, which living cells bring about.
The subject of another test is DU-145. The experiment in a line: Cytotoxicity against human DU145 cells incubated for 24 hrs by WST1 dye reduction assay.
For the next test, the system named is HepG2. In words: Cytotoxicity against human HepG2 cells incubated for 24 hrs by WST1 dye reduction assay.
Another test deals with Caco-2. In words: Cytotoxicity against human Caco2 cells incubated for 24 hrs by WST1 dye reduction assay.
Test [2] is described as follows: Increase in MAPK signaling pathway related gene expression in human PNT1A cells at 10 uM incubated for 8 hrs by Affymetrix human exon array relative to untreated control.

In the case of `S=C=NCCc1ccccn1`, the fold change (FC) in test [1] came to 2.2; in test [2], 1.7. In addition, the Activity entry in the test with PC-3, with DU-145, in the test on HepG2 and in the test on Caco-2 was “Dose-dependent effect” each time.
